Assay results from patent US11407765B2, “Tetracyclic heteroaryl compounds” (AstraZeneca AB, priority 2018, dated 2022).

Protein sequences, listed by entry. Tags and fused reporters are not part of them. Residues count along the entry.
UniProt P01116, 1-188 isoform 2 G12C: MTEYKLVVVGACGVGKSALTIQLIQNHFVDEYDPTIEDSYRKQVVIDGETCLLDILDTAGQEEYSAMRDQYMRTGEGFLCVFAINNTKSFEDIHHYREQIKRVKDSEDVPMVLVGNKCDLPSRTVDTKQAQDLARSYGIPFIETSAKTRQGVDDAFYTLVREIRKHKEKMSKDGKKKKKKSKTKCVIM

Biological target: KRasG12C (Homo sapiens, UniProt P01116, G12C)
Assay: KRasG12C functional assay (HTRF, SOS-mediated nucleotide exchange / Raf RBD binding)
Format: biochemical
Settings: read-out: KRasG12C functional assay IC50 value; 4 hrs incubation with GDP loaded biotinylated KRasG12C; single experiment or average of two or more

Row | Compound | IC50
1 | Cc1ccc2[nH]ncc2c1-c1c(Cl)c2c3c(ncnc3c1F)N1C[C@@H](C)N(C(=O)/C=C/CN(C)C)C[C@H]1CO2 [Example 52] | 2140 nM
2 | Cc1ccc2[nH]ncc2c1-c1c(Cl)c2c3c(ncnc3c1F)N1C[C@@H](C)N(C(=O)/C=C/CN(C)C)C[C@H]1CO2 [Example 53] | 186 nM
